Values of other authors as cited in US6420428B1, “Treatment and prevention of hepatic disorders” (The Regents of the University of California, priority 1996, dated 2002).

Conditions: BHT in combination with retinyl acetate; cited from earlier work

Q: For Cc1cc(C(C)(C)C)c(O)c(C(C)(C)C)c1 [BHT, 2,6-Bis(1,1-dimethylethyl)-4-methylphenol], which hepatic fibrosis is on record?
A: The hepatic fibrosis was “potentiated hepatic fibrosis”.
